This passage reports IC50 results from ChEMBL document CHEMBL4265898, “Histidine N(τ)-cyclized macrocycles as a new genre of polo-like kinase 1 polo-box domain-binding inhibitors” (Bioorg Med Chem Lett, 2018).

Chains of the proteins cited; added tags and fusions are not shown. Lines headed by an entry give the natural chain unless they say otherwise; changes in a name come on top.
UniProt Q9NYY3: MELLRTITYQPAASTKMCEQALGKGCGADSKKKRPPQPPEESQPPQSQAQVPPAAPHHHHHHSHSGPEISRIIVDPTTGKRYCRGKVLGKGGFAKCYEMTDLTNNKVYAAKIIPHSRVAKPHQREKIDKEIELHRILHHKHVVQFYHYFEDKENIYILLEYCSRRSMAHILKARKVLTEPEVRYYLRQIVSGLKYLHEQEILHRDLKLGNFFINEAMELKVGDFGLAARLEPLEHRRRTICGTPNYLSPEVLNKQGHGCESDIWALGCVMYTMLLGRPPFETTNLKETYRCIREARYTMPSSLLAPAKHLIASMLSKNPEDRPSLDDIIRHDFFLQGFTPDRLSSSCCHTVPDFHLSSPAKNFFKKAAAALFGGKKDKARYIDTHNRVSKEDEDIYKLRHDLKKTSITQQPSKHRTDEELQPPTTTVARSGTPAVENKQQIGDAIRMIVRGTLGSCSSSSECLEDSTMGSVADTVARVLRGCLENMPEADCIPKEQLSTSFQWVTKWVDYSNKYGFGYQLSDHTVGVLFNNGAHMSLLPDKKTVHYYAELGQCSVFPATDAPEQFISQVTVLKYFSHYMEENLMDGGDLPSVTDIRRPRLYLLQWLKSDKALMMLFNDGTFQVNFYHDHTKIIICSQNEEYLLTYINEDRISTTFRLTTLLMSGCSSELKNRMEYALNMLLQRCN

The target in this assay is Serine/threonine-protein kinase PLK2 (Homo sapiens, UniProt Q9NYY3). As to the kind of experiment: Inhibition of 5CF-GPMQTSpTPKNG-NH2 binding to Plk2 C-terminal polo-box domain (unknown origin) preincubated for 30 mins followed by probe addition measured after 30 mins by fluorescence polarization assay. (In general: In fluorescence polarisation assays a small probe gives low polarisation when free and higher when bound to something large.)

Turning to `CC(=O)N1CCC[C@H]1C(=O)N[C@@H](CC(C)C)C(=O)N[C@@H](Cc1cncn1CCCCCCCCc1ccccc1)C(=O)N[C@@H](CO)C(=O)N[C@H](C(N)=O)[C@@H](C)OP(=O)(O)O`, the IC50 was 570 nM.

In general, IC50 refers to the concentration that inhibits the measured activity by half. Read a high IC50 as lower potency.
